How the values were obtained:
[1] = target: T1, cRABP (cellular Retinoic Acid-Binding Protein) (Rattus norvegicus, UniProt P62966); assay: Competition test of cold ligand against radioactive ligand for fixation on cRABP; settings: Kd of the cold ligand, calculated from IC50 of competition curve
[2] = target: T1, cRABP (cellular Retinoic Acid-Binding Protein); assay: Saturation test: fixation of ligand on soluble cRABP of rat testicle homogenate; set-up: a homogenate of rat testicles (organ rich in cRABP); from tissue; host or cells: rat testicles (homogenate), inferred from the saturation test; settings: 2 hours incubation, nonlinear regression (Clark equation), read-out: Kd (dissociation constant at equilibrium)
Method: The fixation of the compound of the present invention with cRABP has been characterized by saturation tests. The total fixation (nonspecific +specific) (curva a), is obtained by incubation of increasing concentrations (up to a maximum of 50 nM) of the compound of the present invention with a constant quantity (0.3 ml) of a homogenate of rat testicles (organ rich in cRABP). The nonspecific fixation of the tritiated compound is determined in parallel, by the measurement of the fixation with increasing concentrations of the radioactive ligand in the presence of a large excess (1 μM) of retinoic acid (curve c). An incubation time for 2 hours is necessary for the establishment of equilibrium conditions.
Once equilibrium is reached, the cRABP-tritiated ligand complex is separated from the nonlinked ligand by filtration on an exclusion gel Sephadex G25 column (Bio-Rad econo columns, 0.5×20 cm): the complex is eluted (elution peak at 2.5 ml), while the nonlinked ligand is retained in total on the column. A total separation is thus effected between the linked and nonlinked product. The eluation is made directly in the scintillation tubes and the radioactivity is measured by counting.
The results thus obtained are analyzed by nonlinear regression using as a model the Clark equation: (A. J. Clark, The Mode of Action of Drugs on Cells; A. Arnold and Co., London, 1933). […]

The chains behind the UniProt entries cited, without tags or fusion partners.
UniProt P62966, whole entry: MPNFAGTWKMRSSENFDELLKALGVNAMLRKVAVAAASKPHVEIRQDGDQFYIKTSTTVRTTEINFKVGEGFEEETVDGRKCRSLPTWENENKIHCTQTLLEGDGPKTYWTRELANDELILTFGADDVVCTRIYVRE

CC1=C(/C=C/C(C)=C/C=C/C(C)=C/C(=O)O)C(C)(C)CCC1 [retinoic acid]
Kd ([1]; radioactive ligand: compound of Example 1): 4 nM | Kd ([1]; radioactive ligand: tritiated retinoic acid): 4 nM | Kd [2]: 2 ± 0.8 nM

Reference: patent publication US4880941A, “Trittum labelled compound, its preparation and its use in the determination of the affinity of retinoids for their cellular receptor” (priority 1986, dated 1989)
